What was measured:
[1] = target: calcineurin (CN); settings: ref Supplementary file 1; read-out: Kd Range; cited from earlier work
Source text: Supplement elife-40499-supp1.docx, table 1 | column: Kd Range (µM) || Figure 2. MRBLEs allow quantitative measurement of CN-SLiM interactions in high-throughput. (A) Sequence alignment for previously identified CN PxIxIT binding sites (see Supplementary file 1 for references). (B) Crystal structure showing CN heterodimer bound to the A238L inhibitor including both PxIxIT and LxVP binding sites (PDB ID: 4F0Z). […] Each peptide was synthesized on three different MRBLE codes (light grey lines); affinities were ... || Figure 5. Calibrated in vitro affinities for a range of peptides. (A) In vitro measurements of binding affinities for high-affinity binders identified by combining favorable residues. (B) Correlation between measured ΔΔG values for a full technical replicate (new bead synthesis, new peptide synthesis, and new calcineurin protein purification) for the library shown in (A). […] Figure 5—source data 1. Concentration-dependent binding for calibration library, replicate 1. Figure 5 ... || (+ 1 further places)

[2] = target: T1, calcineurin (CN) (Homo sapiens, UniProt Q08209); assay: MRBLE-pep calcineurin binding assay (concentration-dependent); settings: for CN binding in words: 'Triplicate low' dataset
T1 construct: human calcineurin A isoforms (truncated at residue 400); made in house; host or cells: E. coli BL21 (DE3)
Experimental: MRBLEs were prepared by transferring a 20 μL aliquot from a 600 μL suspension (∼3000–8000 beads depending on pellet size) to a 100 μL PCR strip (20 μL for each CN concentration), exchanging buffer via 3 cycles of iterative pelleting, decanting, and resuspension with 0.1% PBST containing 5% BSA, pH = 7.5 (100 μL), and then left mixing at ∼5 °C on a rotator in the same wash buffer overnight (∼14 hr). MRBLEs were then buffer exchanged once again with CN binding buffer (50 mM Tris pH = 7.5, 150 mM NaCl, 0.1% TWEEN 20) via three iterative cycles of pelleting, decanting, and resuspension.
After incubation, MRBLEs were pelleted, decanted, and washed once with 0.1% PBST (100 μL). After a final round of pelleting and decanting, 20 μL of 0.1% PBST was added and the beads were transferred to a quartz microscope slide for imaging.
The affinity ( Kd ) for each peptide in a MBRLE library was determined via a two-step nonlinear regression using a single-site binding model:(1) Ii=(Imax[CNtotal])/(Kd,i+[CNtotal]) where Ii is the median measured fluorescence intensity for each peptide, Kd,i is the dissociation constant for that interaction, [ CNtotal ] is total CN concentration, and Imax is a global variable representing the fluorescence intensity once MRBLE-pep beads are saturated. First, we determined the global saturation value ( Imax ), by globally fitting the top 80% highest-intensity MRBLE codes. Next, we globally fit the entire data set using this Imax value to yield an estimated absolute affinity ( Kd ) for all peptides in the library. […] Differences in binding affinity were calculated relative to a reference peptide using the standard equation:(2) ΔΔG=RTln(Kd,i/Kd,ref)
Next, we used this reference value and calculated differences in binding affinity ( ΔΔG ) to estimate absolute Kd values for each peptide within the calibration and full calibration libraries (Figure 2—source data 1, Figure 2—source data 2, Figure 5—source data 1, Figure 5—source data 2, Figure 5—source data 3, Figure 5—source data 4).

[3] = system: NFAT-driven luciferase activity in HEK293T cells; assay: In vivo calcineurin activity assay (NFAT dual luciferase reporter); type: cell-based
Source text: The ultimate goal of mapping CN-SLiM binding energy landscapes is to improve understanding of CN target substrate recognition and enable rational design of in vivo inhibitors. To test the degree to which in vitro MRBLE-pep affinities predict in vivo inhibition, we used a previously developed dual luciferase reporter assay to assess the activity of the NFAT2 transcription factor in HEK293T cells (Figure 6A) ([Grigoriu et al., 2013]). NFAT2 must be dephosphorylated by CN to accumulate in the nucleus, where it activates transcription of its target genes, and this interaction can be inhibited by peptides or small molecules that binds to CN. Reduction of NFAT2-dependent transcriptional activity upon expression of a competing PxIxIT peptide therefore reflects, quantitatively, the affinity of the inhibitor peptide for CN. Candidate PxIxIT inhibitors were co-expressed as GFP-fusion proteins within cells to enhance their stability and facilitate direct measurement of inhibitor concentrations.
PxIxIT peptides were fused to eGFP in pEGFPc1 vector. HEK293T cells were transfected with pEGFPc1 clones, pNFAT-Luc and CMV-Renilla in a 6-well plate format. 18 hr post transfection, 1μM FK506 or DMSO (vehicle) was added to the media as needed. 36 hr post transfection, cells were treated with 1 mM Ionomycin and 1 mM phorbol 12,13 di-butyrate to activate calcineurin and AP-1 (via PKC) respectively. 6 hr after pathway activation, cells were collected, washed in PBS and re-suspended in DMEM media. 80% of the cells were used to measure luciferase activity and renilla using the Dual-Glo assay system (Promega) with three technical replicates. The remaining cells were frozen and stored at −80°C. Cell lysates were prepared in RIPA buffer. 15–20 μg of lysate was analyzed by Western for expression of GFP. GFP signal was normalized to either actin or tubulin. Luciferase activity (normalized to renilla expression) was further normalized to eGFP expression. Data represent at least three experimental replicates.

[4] = system: CN N330A/I1331A/R332A mutant (CN NIR); assay: MRBLE-pep binding to CN NIR mutant defective in PxIxIT binding (250 nM); parameters: species or system human
Source text: Using this new assay, we experimentally mapped portions of the CN-PxIxIT binding energy landscape by measuring CN binding to two MRBLE-pep libraries for each of the PVIVIT, PKIVIT, NFATc2, and AKAP79 sequences containing systematic mutations in either the ‘core’ (positions 1–6) or ‘flanking’ PxIxIT residues (positions −1 and 7–9) (368 peptides total) (Figure 3A, Figure 3—figure supplement 1, Figure 3—figure supplement 2, Figure 3—figure supplement 3, Figure 3—figure supplement 4, Figure 3—figure supplement 5, Figure 3—figure supplement 6, Figure 3—figure supplement 7, Figure 3—figure supplement 8, Figure 3—source data 1, Figure 3—source data 2, Figure 3—source data 3, Figure 3—source data 4, Figure 3—source data 5, Figure 3—source data 6, Figure 3—source data 7, Figure 3—source data 8). […] To ensure that measured binding resulted from a true CN-PxIxIT interaction and not nonspecific binding, we repeated all experiments at a single, high concentration (250 nM) using a CN N330A/I1331A/R332A mutant defective in PxIxIT binding (CN NIR) ([Li et al., 2004]) and labeled antibody alone (Figure 3—figure supplement 9, Figure 3—figure supplement 10, Figure 3—figure supplement 11, Figure 3—figure supplement 12; Figure 3—source data 9, Figure 3—source data 10). […]

## CC[C@H](C)[C@H](NC(=O)[C@H](CCCNC(=N)N)NC(=O)[C@@H]1CCCN1C(=O)[C@H](CO)NC(=O)[C@H](CC(C)C)NC(=O)CNC(=O)[C@H](CO)NC(=O)[C@H](C)N)C(=O)N[C@@H](CCC(=O)O)C(=O)N[C@H](C(=O)N[C@H](C(=O)N1CCC[C@H]1C(=O)N[C@@H](CO)C(=O)N[C@@H](Cc1c[nH]cn1)C(=O)N[C@@H](CCC(=O)O)C(=O)N[C@@H](CC(C)C)C(N)=O)[C@@H](C)O)[C@@H](C)CC
[1]
  Kd: 6000 nM
[2]
  CN binding in words: measurable binding

## PVIVIT [PVIVIT PxIxIT peptide fused to eGFP, expressed in HEK293T cells]
[1]
  Kd: 500 nM
[2]
  CN binding in words: strong binding
[3]; all other peptides in vivo experiment, replicate 1
  NFAT-driven luciferase activity, normalized, relative to empty vector (Data): 0.1127
[3]; all other peptides in vivo experiment, replicate 2
  NFAT-driven luciferase activity, normalized, relative to empty vector (Data): 0.1248
[3]; all other peptides in vivo experiment, replicate 3
  NFAT-driven luciferase activity, normalized, relative to empty vector (Data): 0.1641
[3]; initial in vivo experiment, replicate 1, FK506 1 μM
  NFAT-driven luciferase activity, normalized to renilla and eGFP expression, relative to empty vector (Data): 0.1885
[3]; initial in vivo experiment, replicate 2, FK506 1 μM
  NFAT-driven luciferase activity, normalized, relative to empty vector (Data): 0.14
[3]; initial in vivo experiment, replicate 3, FK506 1 μM
  NFAT-driven luciferase activity, normalized, relative to empty vector (Data): 0.1434

## PRIRIT
[4]
  binding by the CN NIR mutant in words: strongly bound

## CC[C@H](C)[C@H](NC(=O)[C@@H](NC(=O)[C@@H]1CCCN1C(=O)[C@H](Cc1c[nH]cn1)NC(=O)[C@@H]1CCCN1C(=O)CNC(=O)[C@H](C)N)C(C)C)C(=O)N[C@H](C(=O)N[C@H](C(=O)N[C@H](C(=O)NCC(=O)N1CCC[C@H]1C(=O)N[C@@H](Cc1c[nH]cn1)C(=O)N[C@@H](CCC(=O)O)C(=O)N[C@@H](CCC(=O)O)C(N)=O)[C@@H](C)O)[C@@H](C)CC)C(C)C
[2]
  Kd: 980 nM

## CC[C@H](C)[C@H](NC(=O)[C@H](C)NC(=O)[C@@H](NC(=O)[C@@H]1CCCN1C(=O)[C@H](CCC(=O)O)NC(=O)[C@H](CCSC)NC(=O)[C@H](CCCNC(=N)N)NC(=O)[C@@H](N)CCCCN)[C@@H](C)CC)C(=O)N[C@H](C(=O)N[C@H](C(=O)N[C@H](C(=O)N[C@@H](CC(=O)O)C(=O)N[C@H](C(=O)N[C@@H](CCC(=O)O)C(=O)N[C@H](C(=O)N[C@@H](CO)C(N)=O)[C@@H](C)CC)[C@@H](C)O)[C@@H](C)O)[C@@H](C)CC)[C@@H](C)CC
[1]
  Kd: 400 to 1500 nM
[2]
  CN binding in words: measurable binding
